Data as given in US10898576B2, “Glucocorticoid combined with polyethylene glycol-modified interleukin 2 for treating respiratory disease” (priority 2016, dated 2021).

Tested on: asthma mice
Assay: Lung function measurement (methacholine provocation, airway resistance) in OVA asthma mice
Assay type: in vivo, BALB/c mice
Details: 20,000 IU PEG-modified IL-2 in combination with 4 μg Bud, 3 days continuous administration, p<0.05
Experimental: Female BALB/c mice aged 6-8 weeks (purchased from SLAC Laboratory Animal Co., Ltd.) were used for modeling of asthma, which were sensitized by intraperitoneal injection with 100 μg of ovalbumin (OVA) (Sigma) and 2 mg of Al(OH)3 for injection (Sigma) on days 1 and 8, and challenged by daily nasal instillation with 20 μl of 2% OVA on days 9-14 (FIG. 1A).
The asthma mice model of Example 1 were subjected to drug intervention while challenge by nasal instillation on days 12-14. The specific administration method was that the mice were anesthetized with 7% chloral hydrate (Sangon Biotech (Shanghai) Co., Ltd.) and then administrated quantitatively through atomization in the lung using an atomization metered dosing device (MicroSprayer®—Model IA-1B), and the administration volume was fixed at 25 ul/mouse, and the administration dose was adjusted by the level of concentration. On the 15th day, relevant indicators were detected.
Lung function measurement. After being anesthetized with 2% pentobarbital sodium, the mice were subjected to respiratory provocation test with methacholine (Sigma) at 3.125 mg/ml, 6.25 mg/ml, and 12.5 mg/ml prepared in PBS, respectively. The airway resistance curve was plotted and analyzed (FinePoint NAM). The assay was performed using the BUXCO Airway Resistance and Lung Compliance System (BUXCO Electronics).

| Substance | airway resistance |
| --- | --- |
| 10 KD non-branched PEG-modified IL-2: IL-2 modified with 10 kD non-branched PEG; tested in combination with 4 μg Bud | a decrease in airway resistance was observed |
| 20 KD branched PEG-modified IL-2: IL-2 modified with 20 kD branched PEG; tested in combination with 4 μg Bud | a decrease in airway resistance was observed |
